The record followed here is patent US11219664B2, “Composition for diagnosing, preventing, or treating vascular smooth muscle cell proliferative diseases using FGF12” (CHUNG-ANG UNIVERSITY INDUSTRY ACADEMIC COOPERATION …, priority 2015, dated 2022).

The subject of this assay is HPASMC. The assay is described as follows: FGF12 expression regulation by BMP in HPASMC (RT-PCR, Western blotting). It is filed as cell-based, human. The protocol: Total RNA of cells or tissues for reverse transcription-polymerase chain reaction (RT-PCR) was isolated with TRIzol reagent (Invitrogen). Next, cDNA was synthesized from total RNA using primers specific to corresponding genes and a Superscript first-strand synthesis kit (Invitrogen), and was amplified by PCR (30-35 cycles). Glyceraldehyde-3-phosphate dehydrogenase (GAPDH) was used as a loading control. Real-time PCR was performed using a SYBR-Green PCR master mix (Applied biosystems) and the StepOnePlus™ Real Time PCR System (Applied Biosystems). Data were analyzed according to ΔΔCt method, and gene expression values were normalized to GAPDH expression.
For transfection for FGF12 overexpression, an expression vector (pCMV6-Entry having the c-terminal labeled Myc-DDK) encoding a rat homologous gene (Origene) having 100% amino acid homology with human FGF12 cDNA was used. HASMCs and HPASMCs were transfected with pCMV6-FGF12(pFGF12) or pCMV6-Entry (pEntry) control vector using Lipofectamien™ 2000 according to the protocol of the manufacturer, and selected using G418 (Sigma) for 2 weeks. For the inhibition of FGF12, p53 or BMPR2 expression, subconfluent HASMCs were transfected with specific or non-specific small interfering RNA (siRNA; GE Healthcare) using Lipofectamien™ 2000.
Cell and tissue lysates were separated by SDS-PAGE, and protein bands were transferred on blots. Blots were reacted with appropriate primary antibodies such as FGF12 (Abcam), p-p53 (Cell Signaling Technology), p53 (BD Biosciences), α-SMA (Sigma), SM22α (Abcam), SM-MHC, or β-actin (Santa Cruz biotechnology), followed by treatment with horseradish peroxidase-conjugated secondary antibodies. The protein bands reacted with antibodies were confirmed by a chemiluminescent reagent (Amersham Biosciences).
(In western blotting, separated proteins are transferred to a membrane and probed.)

Where [1] appears, read: 30 ng/ml, 48 hours, western blotting.

B1: BMP-2: bone morphogenetic protein, promotes differentiation and inhibits proliferation of vascular smooth muscle cells (protein, UniProt P12643 283-396, looked up)
Bone morphogenetic protein 2: QAKHKQRKRLKSSCKRHPLYVDFSDVGWNDWIVAPPGYHAFYCHGECPFPLADHLNSTNHAIVQTLVNSVNSKIPKACCVPTELSAISMLYLDENEKVVLKNYQDMVVEGCGCR
With B1, under setting [1], the FGF12 protein expression entry is “increased” and the “protein expression of vascular smooth muscle cell differentiation markers (α-SMA, SM22α)” value was “increased”. Where the note is “48 hours after addition to basal medium (10 and 30 ng/ml), RT-PCR”, the “level of FGF12 mRNA” value is “significantly increased”.
